Patent US20070010428A1, “Inhibitors of signal transduction and activator of transcription 3” (priority 2004, published 2007)

Test system: SH2 domain of Stat3
Assay: IC50 FP (nM)
From the text: Table printed on a drawing sheet, FIGURE 14a
Head of the field: IC50 FP (nM)
The patent's description of the figure: FIGS. 14A-E is a series of small molecule peptidomimetics (compounds 5-19) along with IC50 values from an in vitro fluorescence polarization assay.
First copying reader's note: The column headed 'Structure' holds only drawn chemical structures (left empty here); the written peptidomimetic sequence stands in an unheaded column to its left.
Where the first naming reader finds the target: passage: The small peptidomimetics were assayed for their ability to bind to the SH2 domain of Stat3 using fluoresence polarization.

For `CC(=O)N[C@@H](Cc1ccc(OP(=O)(O)O)cc1)C(=O)N[C@@H](CC(C)C)C(=O)N1CCC[C@H]1C(=O)N[C@@H](CCC(N)=O)C(=O)N[C@H](C(=O)N[C@H](C(N)=O)C(C)C)[C@@H](C)O` [Peptide 1, Ac-pTyr-Leu-Pro-Gln-Thr-Val-NH2], the IC50 was 220 nM.
